# Yeast mating assay B: variants of the scFv Ab-14

From the AlphaSeq antibody data of Li et al. 2023 (doi:10.1038/s41467-023-39022-2), copy in the FLAb collection.

Antigen: PDVDLGDISGINAS, a 14-residue peptide of the SARS-CoV-2 spike HR2 region.

Parent: Ab-14, a human scFv built as VH, a (GGGGS)3 linker, VL. Only the CDRs of the light chain vary.
VH: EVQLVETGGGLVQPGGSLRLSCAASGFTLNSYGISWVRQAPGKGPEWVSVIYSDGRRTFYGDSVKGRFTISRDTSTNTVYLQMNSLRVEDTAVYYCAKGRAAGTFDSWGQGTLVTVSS
VL: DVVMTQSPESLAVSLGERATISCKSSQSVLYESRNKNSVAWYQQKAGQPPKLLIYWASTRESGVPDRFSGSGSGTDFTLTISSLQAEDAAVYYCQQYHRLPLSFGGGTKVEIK

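This is the validation round: designs drawn from the data on random variants, tested in the same kind of assay. Several design methods are mixed in this list. In AlphaSeq, yeast of one mating type display the scFv and yeast of the other type display the target. After mating in shaken culture at 30 °C for 16 h, diploids were selected and their barcode pairs sequenced. Read counts were normalised to the haploid input and turned into Kd by a linear fit to BCL2-family pairs of known affinity, for each replicate. Each pool was mated in six replicate cultures.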

Variants are written as CDR1, CDR2 and CDR3 of the light chain (limits as in the source). Parent: KSSQSVLYESRNKNSVA, WASTRES, QQYHRLPLS. Variants here have more than six changes. Values are apparent Kd, the geometric mean of the replicates that gave a signal; lower means stronger binding. "no signal" marks a missing value. The strain was present, yet no cells mated with the target were sequenced in any replicate, which points to weak or no binding. Entries are sorted by rising average, undetected variants last. Empty control strains, which show no peptide, gave a signal in 4% of pairings with all light chain designs; the median was 430 nM and 95% of these signals were weaker than 38 nM. No background was subtracted. For each scFv, signals with the empty controls are counted beside the result. The authors' rule: three or more of the six replicates give a measured affinity, fewer mean a poor binder. A sequence measured in both rounds can read differently, since the two assays cover different ranges. The parent sequence was in this pool as ten entries: three were never detected, three once, and four in most replicates, with averages from 2.2 nM to 240 nM.

With KFFQSVLYEQRNQNNVA, SASTREN, QQYHRLPLS the result was 450 pM (6 of 6 replicates; controls 0 of 18).
With KVDFLGDMESRNKNSVA, SASTRES, QQYHRLPLS the result was 760 pM (6 of 6 replicates; controls 2 of 18).
With KAQQSELYGERNSNSVA, EASTRES, QQYHRLPLS the result was 1.4 nM (6 of 6 replicates; controls 0 of 18).
With KLHQSWLYESRNHNSVA, NASQRCS, QQYHRLPLS the result was 1.4 nM (6 of 6 replicates; controls 0 of 18).
With TMPQVWMYESKQKNNVA, EQSTRED, QQYFRLPLS the result was 1.5 nM (6 of 6 replicates; controls 0 of 18).
With KCYQSQDYESRNKNAVA, NASQRED, QQYHRLPLS the result was 1.9 nM (6 of 6 replicates; controls 0 of 18).
With TLSGVMDMTTRNVNSVA, DLTTRGN, QQYHRLPLS the result was 2.4 nM (6 of 6 replicates; controls 0 of 18).
With TLTQVGGYEMNAHNSIA, DLRTRES, QQYHRLPLS the result was 2.7 nM (6 of 6 replicates; controls 1 of 18).
With KIQWYPLEIRGTGSAVA, EAATRYN, QQYMRLPLM the result was 3.0 nM (6 of 6 replicates; controls 0 of 18).
With KIGMTLNQMMHKKNNVA, DLVERAN, QQYFRLPLS the result was 3.8 nM (6 of 6 replicates; controls 0 of 18).
With KLDEDVGNHTHDQKNIA, DESRVDR, QQYAHLPLS the result was 4.5 nM (2 of 6 replicates; controls 0 of 18).
With NISHFMDVTAKNINNVA, EMTMREA, QQYHHLPLS the result was 5.3 nM (6 of 6 replicates; controls 0 of 18).
With KIGMTLNQLYQKANNVA, DLVTREN, QQYHRLPLS the result was 6.1 nM (6 of 6 replicates; controls 0 of 18).
With KLTNITGTEKVKGNNVA, EMETREK, QQYNRLPLS the result was 7.0 nM (6 of 6 replicates; controls 1 of 18).
With NLMSHQGRYDVWKYSIA, EASIRLS, QQYFRLPLA the result was 8.5 nM (6 of 6 replicates; controls 0 of 18).
With KVSEFMRGLMKMKDSIA, DNDTRNS, QQYDRLPLS the result was 10 nM (6 of 6 replicates; controls 0 of 18).
With NFGYALFAEDAKKKSIA, ENTVTEY, QQYSKLPLT the result was 24 nM (6 of 6 replicates; controls 0 of 18).
With KLSMSVLYEDRHKNSVA, GASKRFS, QQYHRLPLS the result was 25 nM (6 of 6 replicates; controls 1 of 18).
With MVNGIMDHLSKQTNNVA, ETTTRNS, QQYDRLPLS the result was 27 nM (6 of 6 replicates; controls 1 of 18).
With HLLQTVMYGSTRKNNVA, HAQTREN, QQYHRLPLS the result was 28 nM (5 of 6 replicates; controls 0 of 18).
With MISDLMLKGSRNKNPIA, NASTREY, QQYHRLPLE the result was 39 nM (6 of 6 replicates; controls 4 of 18).
With TLMHHQDYQDEIKKSIA, NAIIKER, QQYSRLPLA the result was 53 nM (1 of 6 replicates; controls 0 of 18).
With KLQMSVDQLERNDNSVA, WASHRES, QQYHRLPLS the result was 53 nM (3 of 6 replicates; controls 1 of 18).
With HMSMLTLGGMRHMNSVA, QMTTREN, QQYDRLPLA the result was 53 nM (6 of 6 replicates; controls 1 of 18).
With MLSEVLHMLGVKTNSIA, DLVLRAN, QQYHRLPLF the result was 70 nM (6 of 6 replicates; controls 1 of 18).
With KISNMSTIESITHNSVA, QTSTREK, QQYDRLPLS the result was 80 nM (6 of 6 replicates; controls 0 of 18).
With KLSISHLVESINKSNVA, EMVTRES, QQYDRLPLS the result was 200 nM (4 of 6 replicates; controls 1 of 18).
With KISQMTRVGSTHGNSIA, EEVTRAK, QQYHRLPLS the result was 260 nM (5 of 6 replicates; controls 1 of 18).
With HVSESVLLQSKMKNSVA, ENSTRES, QQYDRLPLS the result was 290 nM (5 of 6 replicates; controls 1 of 18).
With MISQLYNMGQFAINSVA, QAETRCN, QQYDRLPLT the result was no signal (0 of 6 replicates; controls 0 of 18).